Test results reported in patent US12214014B2, “Methods for scar reduction by converting scar fibroblasts into adipocytes with hair follicle-derived signals” (The Trustees of the University of Pennsylvania, priority 2017, dated 2025).

Test system: mouse dermal cells isolated from day 15 wounds
Assay: Primary mouse adipogenic cell culture
Format: cell-based
Conditions: 6 ng/ml hBMP4 or 25 ng/ml hBMP2 with differentiation media
Experimental: Primary scar cells were isolated from day 15 wounds as described in D. Gay et al., Nature medicine 19:916 (2013) with minor modifications. Single cell fractions were created and cultured to confluence in high-glucose to DMEM (Gibco) supplemented with 10% FBS (Atlanta Biologicals) and […] Pen/Strep cocktail (Gibco). Upon confluency, cells were cultured in adipocyte differentiation media alone (Cell Solutions) or DMEM supplemented with 5 μg/ml insulin (Sigma), and 1 μM rosiglitazone (Sigma) with either 6 ng/ml of recombinant hBMP4 (R&D Systems), or 25 ng/ml of recombinant hBMP2 (R&D Systems), or differentiation media alone (Cell Solutions). After three days, cells differentiation media was switched to adipocyte maintenance media (Cell Solutions). Cells were cultured in a water-jacketed incubator at 37° C. with 5% CO2 output
Total RNA was isolated using Trizol reagent (Thermo) or RNEasy Micro-Kit (Qiagen) as per manufacturer's protocol with minor modifications. Total RNA was reverse-transcribed and cDNA was amplified using PCR primers described in J. Ishibashi et al., Mol Cell Biol 32:2289 (2012). See Tables 3 and 4 for the sequences of primers used.

B1: BMP2: human recombinant bone morphogenetic protein 2 (R&D Systems) (protein, UniProt P12643 283-396, looked up)
Bone morphogenetic protein 2: QAKHKQRKRLKSSCKRHPLYVDFSDVGWNDWIVAPPGYHAFYCHGECPFPLADHLNSTNHAIVQTLVNSVNSKIPKACCVPTELSAISMLYLDENEKVVLKNYQDMVVEGCGCR
Q: Which results are given for B1?
A: activation of adipocyte-specific genes (qRT-PCR): activation of adipocyte-specific genes; reprogramming of cultured mouse dermal cells into adipocytes (without BMP non-adipogenic): induced their reprogramming into adipocytes
